According to patent US20100311674A1, “PHARMACEUTICAL COMPOSITIONS WITH A MECHANISM OF MULTI-TARGET RECEPTOR RETROACTION FOR TREATING DEPRESSION” (Yu-Fen Chi, priority 2007, published 2010):

Test system: NE and 5-HT contents in the rat cerebral cortex
Test: HPLC-electrochemical test of NE and 5-HT contents in the rat cerebral cortex, unpredictable long-term stimulus model (Experiment 8)
Assay type: in vivo
Details: 2 mg/kg/d into the stomach, 24 days
Source text: Unpredictable long-term stimulus model: Health Wistar male rats, secondary, 240˜270 g of body weight, are purchased from Beijing Vital River Experimental Animal Technology Ltd. Co. (The quality certificate number: SOCK (JING) 2002-2003). 8.2 Reagents and pharmaceuticals: The pharmaceutical of Embodiment 4 is provided by Beijing Wonner Biotech Ltd. Co. (Lot: 060313), and Paroxetine is the product of Zhong Mei Tianjin Smith Kline pharmaceuticals Co. Ltd. (Lot: 04050011). The above pharmaceuticals are prepared with 0.5% of sodium carboxymethylcellulose (CMC-Na) for feeding into the stomach. […] 8.5.6 HPLC-electrochemical test: The amounts of norepinephrine and 5-hydrotryptamine in the rat cerebral cortex are measured. 8.6 Statistic calculation: The experimental data are represented as […], and the experimental result is calculated as ANOVA by SPSS 11.5 statistic software.

Fc1ccc([C@@H]2CCNC[C@H]2COc2ccc3c(c2)OCO3)cc1 [Paroxetine]
5-HT: 227.0637 ± 46.54 nmol/L brain tissue extract
